In the assay the target is EloBC complex (EloB-flag tag and EloC-His8 tag, co-expressed in E. coli) (UniProt Q15370).

Substance “9 types of inBC2-SOCS2s excluding inBC2-SOCS2153-198-9” had a fold improvement of binding ability against inBC2-SOCS2153-198 of 4 fold.

Source of the values: patent US20240352100A1 (AJOU UNIVERSITY INDUSTRY ACADEMIC COOPERATION FOUNDATION, published 2024).
